{
  "sequences": {"note": "Chains of the proteins cited; added tags and fusions are not shown. Lines headed by an entry give the natural chain unless they say otherwise; changes in a name come on top.", "UniProt Q12809": "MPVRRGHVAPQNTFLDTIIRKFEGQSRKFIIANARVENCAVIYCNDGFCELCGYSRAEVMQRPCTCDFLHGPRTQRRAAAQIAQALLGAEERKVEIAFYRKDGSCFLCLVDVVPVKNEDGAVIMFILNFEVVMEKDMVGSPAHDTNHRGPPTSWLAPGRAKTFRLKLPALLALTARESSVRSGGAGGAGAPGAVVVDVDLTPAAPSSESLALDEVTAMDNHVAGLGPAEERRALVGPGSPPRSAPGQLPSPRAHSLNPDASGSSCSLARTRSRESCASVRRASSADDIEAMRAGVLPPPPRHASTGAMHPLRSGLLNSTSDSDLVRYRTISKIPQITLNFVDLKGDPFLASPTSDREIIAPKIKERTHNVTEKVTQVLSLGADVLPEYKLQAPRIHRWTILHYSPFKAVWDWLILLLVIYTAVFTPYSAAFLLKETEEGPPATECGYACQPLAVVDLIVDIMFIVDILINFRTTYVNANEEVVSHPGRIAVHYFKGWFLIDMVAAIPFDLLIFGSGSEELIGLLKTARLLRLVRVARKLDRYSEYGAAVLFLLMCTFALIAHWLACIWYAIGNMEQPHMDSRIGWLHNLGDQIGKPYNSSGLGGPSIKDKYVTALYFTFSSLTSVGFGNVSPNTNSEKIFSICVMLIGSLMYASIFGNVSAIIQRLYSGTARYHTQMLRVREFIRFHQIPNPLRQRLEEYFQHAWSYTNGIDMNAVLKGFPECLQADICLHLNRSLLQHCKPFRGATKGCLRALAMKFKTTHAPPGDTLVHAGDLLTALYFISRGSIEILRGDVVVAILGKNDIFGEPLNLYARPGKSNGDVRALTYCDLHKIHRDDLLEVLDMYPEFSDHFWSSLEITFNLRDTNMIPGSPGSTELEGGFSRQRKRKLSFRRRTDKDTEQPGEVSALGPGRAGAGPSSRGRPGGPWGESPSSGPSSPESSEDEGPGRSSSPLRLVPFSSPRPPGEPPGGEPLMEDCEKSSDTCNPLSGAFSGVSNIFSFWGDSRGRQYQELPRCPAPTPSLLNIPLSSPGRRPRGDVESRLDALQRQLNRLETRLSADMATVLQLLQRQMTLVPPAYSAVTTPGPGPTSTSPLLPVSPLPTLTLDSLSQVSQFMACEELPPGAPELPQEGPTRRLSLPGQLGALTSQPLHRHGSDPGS"},
  "source": "ChEMBL document CHEMBL1138170",
  "about": "“Novel lactam NK1 antagonists with anti-emetic activity” (Bioorg Med Chem Lett, 2006)",
  "target": "Voltage-gated inwardly rectifying potassium channel KCNH2 (Homo sapiens, UniProt Q12809)",
  "assay": "Displacement of labelled MK-499 from cloned channel hERG expressed in HEK cells",
  "type": "cell-based, HEK293",
  "data": [
    {"smiles": "CC(C(=O)N[C@]1(c2ccccc2)CC[C@@H](N2CCC3(CCOC3)CC2)CC1)c1cc(C(F)(F)F)cc(C(F)(F)F)c1", "note": "(stereo partly specified)", "values": [
      {"measurement": "Ki", "result": 787, "unit": "nM"}
    ]}
  ]
}
